Measured values from ChEMBL document CHEMBL5584349.
Activity calls are given as the source filed them. The calls are words filed in the database; no cut-off is given here.

Legend:
HeLa = assay: cells; conditions: Homo sapiens, 72 h
Jurkat = assay: cells; conditions: Homo sapiens, 72 h
[1] = target: T1, Aurora kinase A (Mus musculus) (UniProt P97477); conditions: NSG, dose 200.0 mg/kg, route po, time 8-12 hrs
T1 sequence (whole entry): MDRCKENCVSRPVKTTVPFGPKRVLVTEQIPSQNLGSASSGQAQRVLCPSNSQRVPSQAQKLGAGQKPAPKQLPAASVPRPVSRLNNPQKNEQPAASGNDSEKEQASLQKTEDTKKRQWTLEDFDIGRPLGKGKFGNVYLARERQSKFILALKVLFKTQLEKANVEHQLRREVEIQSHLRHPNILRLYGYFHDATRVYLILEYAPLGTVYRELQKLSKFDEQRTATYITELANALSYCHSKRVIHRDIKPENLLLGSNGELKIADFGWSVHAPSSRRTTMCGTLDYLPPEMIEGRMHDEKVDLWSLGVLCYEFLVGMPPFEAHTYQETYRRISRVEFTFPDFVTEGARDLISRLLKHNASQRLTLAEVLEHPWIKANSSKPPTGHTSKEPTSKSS

[2] = target: T1, Aurora kinase A (Mus musculus); conditions: NSG, dose 200.0 mg/kg, route po, time 8-12 hrs; remark: listed apart in the source
[3] = target: T2, Aurora kinase A (Homo sapiens) (UniProt O14965); conditions: Jurkat, dose 7-35 nM, time 24.0 hrs
T2 sequence (whole entry): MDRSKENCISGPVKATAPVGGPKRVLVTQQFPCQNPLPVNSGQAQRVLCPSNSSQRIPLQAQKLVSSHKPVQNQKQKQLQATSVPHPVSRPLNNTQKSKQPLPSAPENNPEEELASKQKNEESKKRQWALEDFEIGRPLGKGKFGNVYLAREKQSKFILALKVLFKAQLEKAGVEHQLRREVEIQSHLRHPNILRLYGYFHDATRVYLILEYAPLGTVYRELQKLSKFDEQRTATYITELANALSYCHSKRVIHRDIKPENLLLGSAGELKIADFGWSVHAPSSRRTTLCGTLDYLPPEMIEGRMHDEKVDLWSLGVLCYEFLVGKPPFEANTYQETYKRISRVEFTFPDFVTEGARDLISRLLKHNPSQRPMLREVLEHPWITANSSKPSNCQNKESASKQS

[4] = target: T1, Aurora kinase A (Mus musculus); conditions: NSG, dose 30.0 mg/kg, route po, time 8-12 hrs
[5] = target: T2, Aurora kinase A (Homo sapiens); conditions: Jurkat, dose 14.0 nM, time 8.0 hrs

GI50 (HeLa) [µM]	GI50 (Jurkat) [µM]	inhibition [1]	inhibition [2]	inhibition [3]	inhibition [4]	inhibition [5]	SMILES
51.5	27.4	–	–	–	–	–	Cc1c(C(=O)NS(=O)(=O)N(C)C)cc(-c2ccc(Cl)cc2)c2cc[nH]c12
48.1	10.8	–	–	–	–	–	Cc1c(C(=O)O)cc(-c2ccc(Cl)c(C#N)c2)c2cc[nH]c12
21.8	10.3	Active	Active	–	–	–	Cc1c(C(=O)NS(=O)(=O)N(C)C)cc(-c2ccc(Cl)c(Oc3ccccn3)c2)c2cc[nH]c12
–	–	–	–	Active	inactive	Active	COc1cc(Nc2ncc3c(n2)-c2ccc(Cl)cc2C(c2c(F)cccc2OC)=NC3)ccc1C(=O)O
